In patent US10307355B2, “N-aralkylcarbonyldiamine compounds and personal care compositions comprising the same” (Conopco, Inc., priority 2015, dated 2019):
pIC50: −log10 of the molar value.

Chains of the proteins cited; added tags and fusions are not shown.
UniProt P20309, whole entry, looked up: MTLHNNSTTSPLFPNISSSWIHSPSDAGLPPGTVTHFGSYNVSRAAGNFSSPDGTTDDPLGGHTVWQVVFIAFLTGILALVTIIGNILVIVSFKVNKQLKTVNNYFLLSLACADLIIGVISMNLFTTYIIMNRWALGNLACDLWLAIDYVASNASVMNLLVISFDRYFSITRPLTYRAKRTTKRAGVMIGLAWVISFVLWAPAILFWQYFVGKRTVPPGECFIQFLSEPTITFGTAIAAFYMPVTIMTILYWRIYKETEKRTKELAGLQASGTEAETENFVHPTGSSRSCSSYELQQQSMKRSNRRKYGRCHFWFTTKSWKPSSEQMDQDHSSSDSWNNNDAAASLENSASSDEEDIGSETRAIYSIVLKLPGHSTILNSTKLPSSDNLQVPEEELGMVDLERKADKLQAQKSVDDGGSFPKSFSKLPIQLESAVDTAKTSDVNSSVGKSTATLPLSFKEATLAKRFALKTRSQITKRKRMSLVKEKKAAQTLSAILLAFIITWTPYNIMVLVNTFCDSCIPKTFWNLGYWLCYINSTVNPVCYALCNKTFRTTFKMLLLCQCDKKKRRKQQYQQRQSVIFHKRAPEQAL

Key:
human M3 receptor = human M3 receptor (Homo sapiens, UniProt P20309); assay: Muscarinic 3 receptor binding assay (3H-scopolamine displacement, CHO cell membranes); conditions: inhibition of 3H-scopolamine binding to CHO cell suspension expressing the human M3 receptor
[1] = test system: human living skin equivalents; assay: Ki-67 assay using human living skin equivalents (cell proliferation); conditions: 1 μM, dosed once per day for 4 d; vehicle 0.1% DMSO; P-value 0.005

Row | Compound | pIC50 (human M3 receptor) | % Increase in Ki-67 stained positive cells over vehicle [1] [%]
1 | CN(C)CCCN(C)C(=O)C(O)(c1ccccc1)C1CCCC1 (stereo not shown) | 5.82 | 
2 | CN(C)CCN(C)C(=O)C(O)(c1ccccc1)C1CCCC1 (stereo not shown) | 6.36 | 72
3 | CN(C)CCN(C)C(=O)C(O)(c1ccccc1)C1CCCCC1 (stereo not shown) | 6.19 | 
